Hits are enriched below; roughly 1.5% of the tested compounds scored in any of these assays.
PglD inh: C. jejuni PglD acetyltransferase inhibitors, primary screen, biochemical, DTNB colorimetric, single point. purified PglD enzyme, DTNB colorimetric CoA detection. inhibition, % at 12.5 µM. 360,000 tested, 0.098% active; in the data active means inhibition above about 16%, passing the limit was not always enough
GSIS activator: GLuc luminescence reporter in INS-1E cells, primary screen for activators of glucose-dependent secretion of insulin; INS-1E GLuc reporter insulin secretion, 2-3 h; activation, % at 16.6 µM; 370,000 tested, 0.61% active;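 active means lowest replicate activation of at least 40%, so every replicate reaches that level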
CASP6 VEID inh: human caspase-6 inhibitors, primary screen, biochemical, VEID-R110 fluorescence, single point, set 2 | P55212 | purified caspase-6, Z-VEID-R110 cleavage fluorescence | inhibition, % at 12.5 µM | 350,000 tested, 0.53% active | AID 686996, 2013;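 active means mean inhibition across replicates at least about 35%, with every replicate also reaching that limit, limit read from the data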
RAD52 anneal inh: RAD52 DNA annealing inhibitors, primary screen, biochemical, FRET, single point, set 2; DNA repair protein RAD52 homolog (Homo sapiens), P43351; recombinant RAD52 DNA annealing, FRET fluorescence; inhibition, % at 18.7 µM; 360,000 tested, 0.46% active;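 active means every replicate showing at least 50% inhibition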
RAD54 inh: inhibitors of human RAD54 branch migration, primary screen, biochemical, fluorescence, single point; DNA repair and recombination protein RAD54-like (Homo sapiens), Q92698; RAD54 Holliday junction branch migration, FAM/BHQ fluorescence; inhibition, % at 10.4 µM; 360,000 tested, 0.14% active;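 active means mean normalized replicate activity at least 40 and at least half of replicates scoring 40 or more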;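 further: inhibitors cause a drop in the FAM fluorescence signal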
Yeast UUG start: modulators of start codon recognition fidelity in yeast | S. cerevisiae UUG-firefly luciferase reporter, luminescence/redox ratio | activity score, % at 18.7 µM | 350,000 tested, 0.13% active;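 active = replicate mean at a twofold rise or more, about +100% in these data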;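 also: firefly luciferase made from a UUG start codon reports start codon fidelity; reporter light over untreated wells divided by growth signal over untreated wells; some hits fall short of that in this replicate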
Of the large screens only hits and unclear results are named; the others gave an inactive call; ! = repeats disagree.

Cc1ccc(-c2[nH]nc3c2C(c2cccnc2)C(C#N)=C(N)O3)cc1 (configuration not stated)	GSIS activator 78 (no result: CASP6 VEID inh, RAD52 anneal inh)
N#CC1=C(N)Oc2n[nH]c(-c3ccccc3)c2C1c1cccnc1 (configuration not stated)	none (no result: GSIS activator, CASP6 VEID inh, RAD52 anneal inh)
COc1cc(/C=N/Nc2snc(SC)c2C#N)ccc1O	none (no result: CASP6 VEID inh, RAD52 anneal inh)
CCCCn1c(N)c(NCc2ccccc2OC)c(=O)[nH]c1=O	none (no result: PglD inh, RAD54 inh, Yeast UUG start)
CCN(C(=O)COC(=O)c1cccc2ccccc12)c1c(N)n(Cc2ccccc2)c(=O)[nH]c1=O	none
COCCN(C(=O)COC(=O)Cc1coc2cc(C)ccc12)c1c(N)n(Cc2ccccc2)c(=O)[nH]c1=O	CASP6 VEID inh 52
COCCN(C(=O)c1cc(-c2ccco2)nc2ccccc12)c1c(N)n(Cc2ccccc2)c(=O)[nH]c1=O	CASP6 VEID inh 60
CCN(C(=O)COC(=O)c1oc2ccccc2c1C)c1c(N)n(Cc2ccccc2)c(=O)[nH]c1=O	CASP6 VEID inh 54
CCCCn1c(N)c(N(CCOC)C(=O)c2cc(-c3ccco3)nc3ccccc23)c(=O)[nH]c1=O	CASP6 VEID inh 61
CCCN(C(=O)c1cc(-c2ccco2)nc2ccccc12)c1c(N)n(Cc2ccccc2)c(=O)[nH]c1=O	none (no result: PglD inh, RAD54 inh, Yeast UUG start)
CN(Cc1c(C(=O)N2CCCCCCC2)nc2ccc(Cl)cn12)C1CCOC1 (configuration not stated)	none
O=C(Nc1nccs1)C(=O)c1c[nH]c2ccccc12	none (no result: GSIS activator, CASP6 VEID inh, RAD52 anneal inh)
CC(=O)N(C)C[C@@H]1Oc2cc(-c3ccc(C#N)cc3)ccc2S(=O)(=O)N([C@@H](C)CO)C[C@@H]1C	none
O=[N+]([O-])c1ccccc1S(=O)(=O)Nc1nc2ccccc2s1	CASP6 VEID inh 44
Cc1onc(-c2ccccc2)c1C(=O)N1CCOC12CCN(c1cccc(F)n1)CC2	none
Cc1noc(C)c1S(=O)(=O)Nc1ccc2c(c1)C(=O)N([C@H](C)CO)C[C@H](C)[C@H](CN(C)S(=O)(=O)c1ccc(F)cc1)OCCCC[C@@H](C)O2	RAD52 anneal inh 81
Cc1ccc(S(=O)(=O)N(C)C[C@H]2OCCCC[C@@H](C)Oc3ccc(NC(=O)CCCN(C)C)cc3C(=O)N([C@@H](C)CO)C[C@@H]2C)cc1	RAD52 anneal inh 50
Cc1noc(C)c1S(=O)(=O)Nc1ccc2c(c1)C(=O)N([C@H](C)CO)C[C@H](C)[C@@H](CN(C)S(=O)(=O)c1ccc(F)cc1)OCCCC[C@H](C)O2	RAD52 anneal inh 82
Cc1noc(C)c1S(=O)(=O)Nc1ccc2c(c1)C(=O)N([C@H](C)CO)C[C@@H](C)[C@@H](CN(C)S(=O)(=O)c1ccc(F)cc1)OCCCC[C@H](C)O2	RAD52 anneal inh 60
Cc1noc(C)c1S(=O)(=O)Nc1ccc2c(c1)C(=O)N([C@@H](C)CO)C[C@@H](C)[C@H](CN(C)S(=O)(=O)c1ccc(F)cc1)OCCCC[C@@H](C)O2	none
O=C(NCCC1=CCCCC1)c1ccc(-n2cncn2)c([N+](=O)[O-])c1	none (no result: PglD inh, RAD54 inh, Yeast UUG start)
Cc1ccccc1S(=O)(=O)N[C@H]1CC[C@H](CCn2cc(-c3ccccc3)nn2)O[C@H]1CO	none
Cc1noc(C)c1S(=O)(=O)Nc1ccc2c(c1)C(=O)N([C@@H](C)CO)C[C@@H](C)[C@H](CN(C)Cc1ccc(Cl)c(Cl)c1)OCCCC[C@@H](C)O2	CASP6 VEID inh 78
O=C(COc1ccc(F)cc1)NCC1(N2CCOCC2)CCCCC1	none
CCN(CC)CCNc1nc2cc(OC)c(OC)cc2c2nc(-c3ccccc3)nn12	RAD54 inh 106 (no result: CASP6 VEID inh, RAD52 anneal inh)
O=C(NC1CCCC1)c1ccc(Cl)c(S(=O)(=O)N2CCOCC2)c1	GSIS activator 47
Cc1ccc(C(=O)NC2CCCCCCC2)cc1S(=O)(=O)N1CCOCC1	none
NS(=O)(=O)c1ccc(N=Nc2c(O)c(C(=O)O)cc3ccccc23)cc1	none
O=C(O)Cc1ccc(N=Nc2c(O)c(C(=O)O)cc3ccccc23)cc1	CASP6 VEID inh 40
Cc1ncsc1CCOC(=O)c1cccc([N+](=O)[O-])c1	GSIS activator 42!
O=C(COC(=O)c1cccc([N+](=O)[O-])c1)NCc1cccs1	none (no result: PglD inh, RAD54 inh, Yeast UUG start)
Cn1c(SCC(=O)NC2CCCc3ccccc32)nnc1C1CC1 (configuration not stated)	GSIS activator 82
CCc1cccc(CC)c1NC(=O)CSc1nnc(C2CC2)n1C	GSIS activator 45
Cc1cccc(NC2=CC(=O)CC(C)(C)C2)c1C	none (no result: PglD inh, RAD54 inh, Yeast UUG start)
C[C@@H]1CN([C@H](C)CO)C(=O)c2cc(NC(=O)c3ccncc3)ccc2O[C@@H](C)CCCCO[C@H]1CN(C)Cc1ccc(C(=O)O)cc1	RAD52 anneal inh 99
C[C@@H]1CN([C@@H](C)CO)C(=O)c2cc(NC(=O)c3ccncc3)ccc2O[C@@H](C)CCCCO[C@@H]1CN(C)Cc1ccncc1	none (no result: Yeast UUG start)
C[C@@H]1CN([C@H](C)CO)C(=O)c2cc(NC(=O)c3ccncc3)ccc2O[C@@H](C)CCCCO[C@@H]1CN(C)Cc1ccc(C(=O)O)cc1	RAD52 anneal inh 100
CCCOc1ccccc1-c1nc2n[nH]nc2c(=O)[nH]1	none
O=C(CSc1ccc(F)cc1)N1CCN(S(=O)(=O)c2ccccc2)CC1	none
O=C(CSc1ncccn1)N1CCN(S(=O)(=O)c2ccccc2)CC1	GSIS activator 51
CC(C)CN(C(=O)COC(=O)/C=C/c1ccccc1)C1CCS(=O)(=O)C1 (configuration not stated)	CASP6 VEID inh 39
O=C(Nc1nc(-c2ccc([N+](=O)[O-])cc2)cs1)C1=COCCO1	none (no result: GSIS activator)
O=C(Nc1nc(-c2ccc(-c3ccccc3)cc2)cs1)C1=COCCO1	GSIS activator 84 (no result: PglD inh, CASP6 VEID inh, RAD52 anneal inh, RAD54 inh, Yeast UUG start)
N=C1/C(=C/c2coc3ccccc3c2=O)C(=O)N=C2SC(c3ccco3)=NN12	none (no result: GSIS activator, CASP6 VEID inh, RAD52 anneal inh)
N=C1/C(=C\c2coc3ccccc3c2=O)C(=O)N=C2SC(c3ccncc3)=NN12	CASP6 VEID inh 41
CSC1=NSC2=NC(=O)/C(=C\c3coc4ccccc4c3=O)C(=N)N12	none (no result: PglD inh, RAD54 inh, Yeast UUG start)
N=C1/C(=C\c2coc3ccc(O)cc3c2=O)C(=O)N=C2SC=CN12	CASP6 VEID inh 42 (no result: PglD inh, RAD54 inh, Yeast UUG start)
CCOC(=O)CN(Cc1sccc1C)C(=O)Nc1cccc(OC)c1	none (no result: PglD inh, RAD54 inh, Yeast UUG start)
O=C(N/N=C/c1ccc(O)cc1O)NC12CC3CC(CC(C3)C1)C2	GSIS activator 41
O=C(N/N=C/c1cc([N+](=O)[O-])ccc1O)NC12CC3CC(CC(C3)C1)C2	none (no result: PglD inh, GSIS activator, RAD54 inh, Yeast UUG start)
CC1CCc2sc(-c3n[nH]c(=S)o3)cc2C1 (configuration not stated)	none (no result: PglD inh, RAD54 inh, Yeast UUG start)

Screens (PubChem)
